Shown are actives, neighbours in structure and some others; about 2.5% of the full set was active somewhere.
Anesthetic bind: binds horse apoferritin like a general anesthetic; P02791; apoferritin/1-aminoanthracene competitive binding, fluorescence; Potency, µM (titrated, usually from 77.5 µM), for the others: at the highest dose activity change, negative = displacement, most hits filed as inhibitors; 350,000 tested, 0.074% active; AID 485281; further: potency means the concentration at half of the fitted maximal effect; on the % scale 0 is the no-effect control and ±100 the full control effect; nearly all actives have a fitted effect of over 20% in size
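Concentration-response curves derived by four-parameter Hill fitting of normalized fluorescence, where compounds displaced 1-AMA from 10 uM horse apoferritin following a brief 10 min room-temperature incubation; propofol titration acted as positive control.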
ClpP mod: qHTS Assay for Activators of ClpP; Potency, µM (top dose mostly 57.5 µM), inactives show at the top dose activity change, negative = active; 340,000 tested, 1.9% active; purified B. subtilis ClpP, FRET peptide cleavage, 20 min; ATP-dependent Clp protease proteolytic subunit (Bacillus subtilis (strain 168)), P80244; active means well fitted falling curve with a large enough effect; inconclusive means small, poorly fitted or top-dose-only effect; inactive means no such curve, though single readings can be large or run the other way; further: potency means the concentration at half of the fitted maximal effect; the source files actives as falling curves though it sought activators and does not explain the sign; nearly all actives have a fitted effect of over 65% in size
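Buffer: 100 mM Tris/HCl pH8, 100 mM KCl, 0.05% low protease BSA, 2.5% glycerol, 0.01% Tween-20. ClpP 10 microg/mL final; 20 min RT; delta FRET normalized to ADEP and DMSO controls.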
miR-21 FLuc: miR-21 reporter, rising signal | AID 2288 | HeLa miR-21 FLuc reporter, luciferase, 48 h | 340,000 tested, under 10 active | Potency, µM (titrated, usually from 38.3 µM), for the others: at the top dose reporter change, positive = more light; active = well fitted rising curve with a large enough effect; inconclusive = small, poorly fitted or top-dose-only effect; inactive = no such curve, though single readings can be large or run the other way;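 also: % of control where 0% means no effect; miR-21 action dims this reporter so a rising signal means less miR-21 action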
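HeLa miR-21-FLuc reporter line, endogenous miR-21; 2000 cells/well in DMEM/10% FBS; compound titration up to ~40uM final, 48 h, 37 degree Celsius; luciferase detection reagent, 15 min lysis, CCD luminescence.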
TrxR1 inh-1: inhibitors of rat thioredoxin reductase 1; O89049; recombinant rTrxR1, NADPH fluorescence consumption, selenite substrate; 390,000 tested, 1% active; Potency, µM (top dose mostly 114 µM), for inactives: at the highest dose activity change, negative = inhibition, hits mostly inhibitors; AID 588453; further: potency means the concentration at half of the fitted maximal effect; on the % scale 0 is the no-effect control and ±100 the full control effect; nearly all actives have a fitted effect of over 65% in size
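Rat TrxR1 (90 nM in the dispensed reagent) was pre-reduced with 400 uM NADPH for 5 min at room temperature, then incubated with compound for 15 min. After 400 uM selenite was added, NADPH fluorescence (Ex 340/Em 450 nm) was followed for 8 min.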
TrxR1 substrate: substrates of rat thioredoxin reductase 1; O89049; purified TrxR1 substrate turnover, NADPH consumption readout; Potency, µM (series often up to 114 µM), inactives show top-dose activity change, negative = substrate turnover; 390,000 tested, 0.01% active; further: potency means the concentration at half of the fitted maximal effect; on the % scale 0 is the no-effect control and ±100 the full control effect; nearly all actives have a fitted effect of over 50% in size
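Rat TrxR1, dispensed at 90 nM, was prereduced with 400 uM NADPH (final) for 5 min at ~22 deg C, then incubated with compound 15 min before 400 uM selenite. A first-read NADPH fluorescence drop versus no-compound background flagged substrates.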
TRb-SRC2 inh: TRb-SRC2 (human) interaction inhibition; shares compounds with TrxR1 inh-1; AlphaScreen TRb LBD-SRC2 peptide binding, luminescence; Potency, µM; 30 tested, 50% active; AID 2444; calls by dose curve
HepG2 tox: HepG2 cytotoxicity, 72 h ATP readout | 40 tested, 50% active | Potency, µM | shares compounds with TrxR1 inh-1 | AID 2447 | HepG2 viability, ATP luminescence (CellTiter-Glo), 72 h; calls by dose curve
AR-SRC2 inh: disrupts human androgen receptor binding to SRC2 peptide; shares compounds with TrxR1 inh-1; AR-LBD Tx-SRC2-3 fluorescence polarization, 3 h; calls only; 25 tested, under 10 active; AID 2448; call rule not given here
PPARg DRIP2 FP: selectivity of TRb-SRC2 inhibitors: human PPARgamma coactivator binding inhibition; shares compounds with TrxR1 inh-1; PPARg LBD / Texas Red DRIP-2 peptide, fluorescence polarization, 3 h; Potency, µM; 25 tested, under 10 active; calls by dose curve
VDR-SRC2 FP sel: VDR-SRC2 (human) interaction inhibition, selectivity. shares compounds with TrxR1 inh-1. VDR LBD/SRC2-3 peptide, fluorescence polarization, 3 h. Potency, µM. 25 tested, under 10 active. AID 2455; calls by dose curve
TRb-SRC2 FP Fluo: disrupts human TRb binding to fluorescein-SRC2 peptide. Potency, µM. TRb LBD / fluorescein-SRC2 peptide, fluorescence polarization. 20 tested, under 10 active. shares compounds with TrxR1 inh-1; call rule not given here
GR counterassay: counter-screen for TrxR1 inhibitors: human glutathione reductase inhibition. shares compounds with TrxR1 inh-1. purified GR, DTNB reduction absorbance 405 nm kinetic. activity change, negative = inhibition, % at 57.1 µM. 55 tested, under 10 active. AID 652020
TrxR1 inh-2: validation of rat thioredoxin reductase 1 inhibitors | shares compounds with TrxR1 inh-1 | recombinant TrxR1, NADPH fluorescence consumption, selenite substrate | Potency, µM, usual class: inhibitors | 55 tested, 50% active | AID 652023
TrxR1 insulin: TrxR1 inhibition in insulin mechanism assay. shares compounds with TrxR1 inh-1. TrxR1 Trx-coupled insulin reduction, NADPH absorbance 340 nm. Potency, µM. 55 tested, 20% active;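 active means compounds with a measured potency under 100 micromolar; inconclusive means filed, but no rule given; inactive means potency at or above that, or unmeasurable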
TrxR1 inh-3: inhibitors of rat thioredoxin reductase 1, DTNB reduction; shares compounds with TrxR1 inh-1; purified TrxR1, DTNB reduction, A412; Potency, µM; 55 tested, 90% active; AID 652256;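 active means a half-inhibiting concentration could be measured and was below 100 µM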
Active calls of the source: *; i = inactive; ? = inconclusive; · = no result; ! = not confirmed by another sample; [ ] = dose if it differs, or a comment. Unless noted, the call rests on the fitted dose curve; in most records, active means well fitted curve in the direction sought with a large enough effect; inconclusive means small, poorly fitted or top-dose-only effect, or another doubt; inactive means no such curve, though single readings can be large; an effect the other way counts as inactive or inconclusive.

By UniProt entry, the sequences of proteins in these tests, tags left out.
ATP-dependent Clp protease proteolytic subunit (Bacillus subtilis (strain 168)), P80244, UniProt P80244, whole entry, looked up: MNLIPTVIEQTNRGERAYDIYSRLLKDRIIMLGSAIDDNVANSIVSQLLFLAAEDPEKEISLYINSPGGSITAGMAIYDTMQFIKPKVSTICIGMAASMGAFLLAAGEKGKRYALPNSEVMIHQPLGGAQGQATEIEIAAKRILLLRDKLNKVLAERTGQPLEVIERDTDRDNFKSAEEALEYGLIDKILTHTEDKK

SMILES	Anesthetic bind	ClpP mod	miR-21 FLuc	TrxR1 inh-1	TrxR1 substrate	HepG2 tox	GR counterassay	TrxR1 inh-2	TrxR1 insulin	TrxR1 inh-3	others
COc1ccc(N2CCN(C(=O)c3cccn3-c3nnc(N4CCCC4)s3)CC2)cc1	2%	-7%	-5%	-16%[57.1 µM]	-9%[57.1 µM]	·	·	·	·	·
O=C1N/C(=C/c2ccc(N3CCOCC3)o2)C(=O)N1c1ccccc1	-11%	-1%	16%	7.1µM*	-3%	·	-13	2.1*	i	2.1µM*
C=CCN1C(=O)N/C(=C/c2ccc(N3CCOCC3)o2)C1=O	-7%	·	?	·	·	·	·	·	·	·
CC1CCN(C(=O)COC(=O)c2ccc(S(C)(=O)=O)c([N+](=O)[O-])c2)CC1	·	·	·	·	·	20µM*	·	·	·	·
CC1CCN(C(=O)C(C)OC(=O)c2ccc(S(C)(=O)=O)c([N+](=O)[O-])c2)CC1 (stereo not drawn)	·	-1%	·	11µM*	5%	i	·	·	·	·	TRb-SRC2 inh=7.3µM*;AR-SRC2 inh=i;PPARg DRIP2 FP=i;VDR-SRC2 FP sel=i;TRb-SRC2 FP Fluo=3.6µM*
Cc1ccc(NC(=O)C2CCCN(S(=O)(=O)c3ccc4c(c3)CCCC(=O)N4)C2)cc1N(C)C (stereo not drawn)	-16%	2%	22%	20%	0%	·	·	·	·	·
O=C(CSc1nc2c([nH]c3ccccc32)c(=O)n1-c1ccccc1F)Nc1cccc(Cl)c1	2%	-26%	?	18%[57.1 µM]	0%[57.1 µM]	·	·	·	·	·
CCN1C(=NCCc2c[nH]c3ccccc23)N[C@@H](c2ccccc2)C(C(=O)OC)=C1C	-15%	·	15%	·	·	·	·	·	·	·
COC(=O)C1=C(C)N(CCc2c[nH]c3ccccc23)C(=O)/C1=C\N(C)C	-17%	-4%	-1%	10µM*	-9%	·	-1	9.5*	36µM*	0.12µM*
C[C@@H]1CC=C[C@H]2[C@H]1C(=O)N(Cc1ccccc1)[C@H]2c1ccc2ccccc2c1Br	-9%	0%	?	16µM*	-9%	·	-11	5.3*	i	0.95µM*
Cc1ccc(-c2noc(-c3ccccc3NC(=O)C3CC(=O)N(c4cccc(C)c4)C3)n2)cc1 (stereo not drawn)	-7%	-18%	0%	-1%	-7%	·	·	·	·	·
O=C(Nc1cccnc1)c1ccc2nc(-c3ccccc3)c(-c3ccccc3)nc2c1	?	-10%	16%	10%	-3%	·	·	·	·	·
O=C(Nc1ccccc1)c1ccc2nc(-c3ccco3)c(-c3ccco3)nc2c1	4%	-4%	11%	4µM*	-6%	·	-27	3.8*	i	1.6µM*
Cc1cc(S(=O)(=O)c2ccc([N+](=O)[O-])cn2)ccc1Br	·	0%	·	0.11µM*	10%[57.1 µM]	·	-1	0.12*	35µM*	0.011µM*
CCOc1ccccc1NC(=O)Cn1c(=O)n(CCCC(=O)NCCOC)c(=O)c2cc(OC)c(OC)cc21	3%	-16%	8%	1%	-1%	·	·	·	·	·
O=C(NC(=S)Nc1ccc(N2CCOCC2)cc1)c1cccc(Cl)c1	-11%	-1%	-31%	10µM*	-11%	·	-4	5.3*	i	2.6µM*
O=C(NC(=S)Nc1ccc(N2CCOCC2)cc1)c1cccc(Cl)c1Cl	-1%	2%	0%	?	1%	·	·	·	·	·
Fc1ccc(/C=C2\CCCC3=C2Nc2ncnn2C3c2ccc(F)cc2)cc1 (stereo not drawn)	?	?	?	0.71µM*	1%[57.1 µM]	·	-16	3*	i	0.25µM*
Cc1ccc(F)cc1NC(=O)COC(=O)c1ccc(S(C)(=O)=O)c([N+](=O)[O-])c1	·	0%	·	2µM*	1%	13µM*	·	·	·	·	TRb-SRC2 inh=i;TRb-SRC2 FP Fluo=i
CS(=O)(=O)c1ccc(C(=O)OCC(=O)NCC2CCCO2)cc1[N+](=O)[O-] (stereo not drawn)	·	-3%	·	3.5µM*	2%	?	·	·	·	·	TRb-SRC2 inh=i;AR-SRC2 inh=i;PPARg DRIP2 FP=i;VDR-SRC2 FP sel=i;TRb-SRC2 FP Fluo=i
COc1ccc(C(=O)OCC(=O)NC(=O)NC2CCCC2)cc1[N+](=O)[O-]	·	·	·	9%	-5%[57.1 µM]	·	·	·	·	·
CS(=O)(=O)c1ccc(C(=O)OCC(=O)NC(=O)NC2CCCCC2)cc1[N+](=O)[O-]	·	0%	·	7.1µM*	-4%	i	·	·	·	·	TRb-SRC2 inh=17µM*;AR-SRC2 inh=i;PPARg DRIP2 FP=?;VDR-SRC2 FP sel=49µM*;TRb-SRC2 FP Fluo=14µM*
Cn1cccc1C(=O)NC(=O)COC(=O)c1ccc(S(C)(=O)=O)c([N+](=O)[O-])c1	·	-9%	·	4.5µM*!	-3%	?	·	·	·	·	TRb-SRC2 inh=27µM*;AR-SRC2 inh=i;PPARg DRIP2 FP=52µM*;VDR-SRC2 FP sel=?;TRb-SRC2 FP Fluo=?
Cc1cccc(Cc2c(C)nc3nc(SCc4ccccc4C)nn3c2C)c1	?	?	15%	10%[57.1 µM]	0%[57.1 µM]	·	·	·	·	·
CCOc1cccc(C2c3c(oc4ccc(F)cc4c3=O)C(=O)N2c2cc(C)ccn2)c1 (stereo not drawn)	-12%	-2%	-12%	5%	-6%	·	·	·	·	·
COc1cccc(CNC(=O)COC(=O)c2ccc(S(C)(=O)=O)c([N+](=O)[O-])c2)c1	·	2%	·	1.3µM*	0%	i	·	·	·	·	TRb-SRC2 inh=i;AR-SRC2 inh=i;PPARg DRIP2 FP=i;VDR-SRC2 FP sel=i;TRb-SRC2 FP Fluo=i

In the list so far, three have a Cl atom.
SMILES	Anesthetic bind	ClpP mod	miR-21 FLuc	TrxR1 inh-1	TrxR1 substrate	HepG2 tox	GR counterassay	TrxR1 inh-2	TrxR1 insulin	TrxR1 inh-3	others
O=C(CSc1nc2c([nH]c3ccccc32)c(=O)n1-c1ccccc1F)Nc1cccc(Cl)c1	2%	-26%	?	18%[57.1 µM]	0%[57.1 µM]	·	·	·	·	·
O=C(NC(=S)Nc1ccc(N2CCOCC2)cc1)c1cccc(Cl)c1	-11%	-1%	-31%	10µM*	-11%	·	-4	5.3*	i	2.6µM*
O=C(NC(=S)Nc1ccc(N2CCOCC2)cc1)c1cccc(Cl)c1Cl	-1%	2%	0%	?	1%	·	·	·	·	·

Assay outcomes (PubChem)
